# Source: PubChem BioAssay AID539 (SRMLSC, 2006)
# The list shows a part of the results, in another mix than the full data. The source made the active and inactive calls.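 How the source made its calls: active means top-ranked compounds by inhibition in the single 10 µM screen, taking a fixed number of the strongest; inactive means the rest, inconclusive results apart.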
# Test system: phosphomevalonate kinase (Streptococcus pneumoniae D39)
# Experiment: S. pneumoniae PMK inhibitors, primary screen, biochemical, mevalonate pathway, pilot trial included (AID 539);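 further: 0% = full reaction with DMSO carrier and 100% = background rate without enzyme reaction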
# Conditions: purified PMK, PK/LDH-coupled NADH absorbance 340 nm; at 10 µM; stronger effect = higher value
row,Structure (SMILES),inhibition
1,O=P(Nc1nccs1)(c1ccccc1)c1nc2ccccc2s1 (stereo unspecified),active: 78%
